Data published in ChEMBL document CHEMBL1156817, “Fructose-1,6-bisphosphatase Inhibitors. 2. Design, synthesis, and structure-activity relationship of a series of phosphonic acid containing benzimidazoles that function as 5'-adenosinemonophosphate (AMP) mimics” (J Med Chem, 2010).

Test system: Hepatocyte
Experiment: cells
Conditions: Rattus norvegicus

CC(C)Cn1c(-c2ccc(P(=O)(O)O)o2)nc2c(N)c(F)cc(Cl)c21
IC50: 3.6 µM
